## AlphaSeq binding of Ab-14 heavy chain variants to a spike HR2 peptide

Target peptide (SARS-CoV-2 spike, HR2 region): PDVDLGDISGINAS

The variants keep the light chain, the linker and the frameworks of Ab-14 (scFv order VH, three GGGGS repeats, VL).
VH: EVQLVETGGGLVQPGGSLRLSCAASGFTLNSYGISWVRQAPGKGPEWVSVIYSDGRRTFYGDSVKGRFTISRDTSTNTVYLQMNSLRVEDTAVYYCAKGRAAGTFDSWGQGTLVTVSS
VL: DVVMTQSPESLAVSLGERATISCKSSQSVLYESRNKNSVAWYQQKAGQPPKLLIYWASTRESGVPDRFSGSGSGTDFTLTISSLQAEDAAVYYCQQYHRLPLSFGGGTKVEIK

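The parent was found by panning a naive human phage display library on the peptide. This is the validation round: designs drawn from the data on random variants, tested in the same kind of assay. Their group label is 14H_En_Gen (En: ensemble of fine-tuned language models; Gen: genetic algorithm). The assay is AlphaSeq: two haploid yeast populations carry antibody and antigen on their surface. After mating in shaken culture at 30 °C for 16 h, diploids were selected and their barcode pairs sequenced. A regression on co-assayed BCL2-family reference pairs converts the normalised counts of each replicate to an apparent Kd. There are six technical replicates.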

The parent's heavy chain CDRs are GFTLNSYGIS, VIYSDGRRTFYGDSVK, GRAAGTFDS; each variant's own CDRs replace them letter for letter. Values are log10 of the apparent Kd in nM; lower means stronger binding. The range of this assay differs from that of the first round, and the authors advise against merging the two. Background: pairings of all heavy chain designs with three empty control strains gave a value in 1% of cases (median 2.08, 5th percentile 0.84). Values in that range, when seen in few replicates, are hard to tell from nonspecific mating. Also given: how often the same scFv was detected with the empty control strains, with their mean in brackets. The authors' rule: three or more of the six replicates give a measured affinity, fewer mean a poor binder.

CDR-H1	CDR-H2	CDR-H3	log10 Kd, replicates	signal with controls
GFDLNEYGIS	VIYADGQRTAYIDSVK	GQNAGTFDV	-0.16 -0.29 -0.51 -0.56 -0.57 -0.40	0 of 18
GFDLNEYGIS	VIYADGQRTAYADSVK	GNNAGTFDM	1.71 0.72 0.97 0.33 0.74 1.92	0 of 18
GFDLDEYGIS	VIYADGQRTAYADSVK	GNQAGTFDT	1.05 0.41 0.55 0.53 0.76 0.69	0 of 18
GFDLNEYGIS	VIYADGVRKAYADDVK	GNVAGTFDI	-0.59 -0.61 -1.26 -0.53 -0.84 -0.76	1 of 18 (0.12)
GFDLNEYGIS	VIYADGKRTAYADSVK	GEVAGTFDM	-0.62 -0.50 -0.41 -0.66 -0.22 -0.21	0 of 18
GFDLNEYGIS	VIYADGSRTAYANSVK	GNVAGTFDV	-0.52 -0.49 -0.44 -0.79 -0.83 -0.46	0 of 18
GFDLDEYGIS	VIYADGRRTAYADSVK	GNQAGTFDL	-0.55 -0.42 -1.14 -0.57 -0.52 -0.62	0 of 18
GFDLNEYGIS	VIYADGSRTAYSDSVK	GGNAGTFDV	-0.37 -0.55 -0.71 -0.60 -0.76 -0.41	0 of 18
GFDLNEYGIS	VIYADGVRTAYSDSVK	GEVAGTFDI	-0.04 -0.11 -0.46 -0.43 0.19 -0.27	0 of 18
GFDLNEYGIS	VIYADGKRTAYANDVK	GEVAGTFDV	-0.59 -0.81 -1.07 -1.24 -1.36 -0.80	0 of 18
GFDLNEYGIS	VIYADGMRTSYIDSVK	GNVAGTFDV	-0.34 -0.26 -0.40 -0.34 -0.17 -0.17	2 of 18 (1.87)
GFDLNEYGIS	VIYADGMRTYYTDSVK	GNVAGTFDV	-0.42 -0.73 -0.97 -1.24 -0.51 0.20	0 of 18
GFDLDEYGIS	VIYADGVRKAYADSVK	GNNAGTFDV	0.59 -0.29 0.64 -0.13 -0.48 0.12	1 of 18 (1.05)
GFDLDEYGIS	VIYADGKRTYYADSVK	GNNAGTFDV	-0.46 -0.60 -0.44 -0.59 -0.60 -0.42	1 of 18 (3.27)
GFDLNEYGIS	VIYADGVRTAYADDVK	GNNAGTFDV	0.40 0.91 0.55 0.56 0.60 0.85	0 of 18
GFDLNEYGIS	VIYADGKRTAYQDSVK	GNVAGTFDV	-0.74 -0.30 -0.27 -0.61 -0.48 -0.09	1 of 18 (1.16)
GFDLEEYGIS	VIYADGMRTAYSDSVK	GNVAGTFDL	-0.15 -0.79 -0.74 -0.64 -0.66 -0.26	1 of 18 (1.37)
GFDLDEYGIS	VIYADGRRTAYSDSVK	GENAGTFDT	0.24 -0.81 -0.81 -0.72 -0.16 -0.69	0 of 18
GFDLDEYGIS	VIYADGMRTAYTDSVK	GNVAGTFDA	-0.04 1.11 0.22 -1.00 -0.51 -0.89	0 of 18
GFDLNEYGIS	VIYADGQRTAYADSVK	GNQAGTFDQ	-0.04 0.01 -0.65 -0.27 -0.16 -0.75	0 of 18
GFDLNEYGIS	VIYADGSRTAYSDSVK	GTNAGTFDV	-0.36 -0.31 -0.43 -0.36 -0.44 -0.33	0 of 18
GFDLNEYGIS	VIYADGRRTVYADSVK	GNVAGTFDV	-0.22 -0.56 -0.65 -0.72 -0.54 -0.46	0 of 18
GFDLNEYGIS	VIYADGMRTAYADDVK	GNVGGTFDV	-0.46 -0.34 -0.79 -0.85 -0.73 -0.06	2 of 18 (1.49)
GFDLNEYGIS	VIYADGQRTAYVDSVK	GENAGTFDV	-0.22 -0.63 -0.30 -0.44 -0.19 -0.45	0 of 18
GFDLNEYGIS	VIYADGSRTAYSDSVK	GENAGTFDM	-0.17 -0.15 -0.66 -0.49 -0.08 0.52	0 of 18
GFDLNEYGIS	VIYADGRRTFYADSVK	GNNAGTFDI	-0.33 -0.20 -0.30 -0.26 -0.09 0.06	0 of 18
GFDLNEYGIS	VIYADGSRTAYADSVK	GQVAGTFDV	-0.40 -0.80 -0.68 -1.27 -0.74 -0.57	0 of 18
GFDLDEYGIS	VIYADGMRTAYADKVK	GNVAGTFDV	0.10 -0.45 -0.59 -0.75 -0.47 -0.22	0 of 18
GFDLNEYGIS	VIYADGQRTAYSDSVK	GQNAGTFDV	-1.16 -1.57 -1.80 -2.16 -1.56 -1.93	0 of 18
GFDLNEYGIS	VIYADGMRTAYSDSVK	GSNAGTFDQ	-0.01 -0.35 -0.30 -0.03 0.00 0.06	0 of 18
GFDLNEYGIS	VIYADGVRTAYIDSVK	GNQAGTFDL	-0.07 0.31 -0.99 0.11 0.10 -0.01	0 of 18
GFDLNEYGIS	VIYADGRRTAYADSVK	GSNAGTFDL	-0.32 -0.34 -0.31 -0.35 -0.53 -0.14	0 of 18
GFDLDEYGIS	VIYADGKRTAYADSVK	GNEAGTFDT	-0.66 -0.76 -0.59 -0.25 -0.82 -0.64	0 of 18
GFDLNEYGIS	VIYADGMRTFYADSVK	GNEAGTFDI	-0.80 -0.75 -0.97 -1.28 -1.09 -1.02	0 of 18
GFDLNEYGIS	VIYADGLRTAYVDSVK	GNNAGTFDV	-0.55 -0.57 -0.68 -0.91 -1.13 -1.01	0 of 18

Extract of 5 entries:

CDR-H1,CDR-H2,CDR-H3,"log10 Kd, replicates",signal with controls
GFDLNEYGIS,VIYADGVRKAYADDVK,GNVAGTFDI,-0.59 -0.61 -1.26 -0.53 -0.84 -0.76,1 of 18 (0.12)
GFDLDEYGIS,VIYADGRRTAYSDSVK,GENAGTFDT,0.24 -0.81 -0.81 -0.72 -0.16 -0.69,0 of 18
GFDLDEYGIS,VIYADGKRTAYADSVK,GNEAGTFDT,-0.66 -0.76 -0.59 -0.25 -0.82 -0.64,0 of 18
GFDLNEYGIS,VIYADGSRTAYSDSVK,GGNAGTFDV,-0.37 -0.55 -0.71 -0.60 -0.76 -0.41,0 of 18
GFDLDEYGIS,VIYADGQRTAYADSVK,GNQAGTFDT,1.05 0.41 0.55 0.53 0.76 0.69,0 of 18

Reference: Li et al. 2023, doi:10.1038/s41467-023-39022-2. File: FLAb, binding data.